An excerpt weighted towards active compounds, which were near 1.5% of everything screened.
PABP1 MLLE inh: inhibitors of microRNA-mediated deadenylation, human PABP1 MLLE binding | P11940 | GST-MLLE / FITC-PAM2 fluorescence polarization | inhibition, % at 20 µM | 0.36% of 360,000 active | AID 588489; in the data active = inhibition above about 35%, passing the limit was not always enough;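 also: plate controls were DMSO wells with GST-MLLE for no effect and wells lacking GST-MLLE protein for full effect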
PABP FP inh: blocks human PABP binding to poly(A) RNA; P11940; fluorescence polarization; calls only at 35 µM; 1% of 290,000 active; AID 2014;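 also: calls also rest on retests at 20 µM and on dose response follow-up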
Yeast UUG start: modulators of start codon recognition fidelity in yeast; AID 602363; activity score, % at 18.7 µM; S. cerevisiae UUG-firefly luciferase reporter, luminescence/redox ratio; 0.13% of 350,000 active;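 active = replicate mean at a twofold rise or more, about +100% in these data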;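 note: firefly luciferase made from a UUG start codon reports start codon fidelity; reporter light over untreated wells divided by growth signal over untreated wells; some hits fall short of that in this replicate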
DSG3 Ab inh: blocks pemphigus antibody binding to human desmoglein-3 | DSG3-coupled beads, scFv-anti-DSG3-GFP binding, flow cytometry; stronger effect = lower value | P32926 | binding (percent of control), % at 10 µM | AID 588358 | 0.48% of 310,000 active;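 active = binding more than 3 SD below its plate's average and above zero; inconclusive = below that plate limit but binding exactly zero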;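 also: hits lower antibody fragment binding to DSG3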
eIF4H inh: inhibitors of RNA binding by human eIF4H. Q15056. eIF4H fluorescence polarization binding assay. inhibition, % at 35 µM. 0.94% of 290,000 active. AID 2012;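 also: calls also rest on retests at 20 µM and on dose response follow-up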
The depositor's hits bear a star; i = inactive; ? = inconclusive; . = not tested or not shown; + = active, no number. Unless noted, no rule for the calls is given here.

Structure,PABP1 MLLE inh,PABP FP inh,Yeast UUG start,DSG3 Ab inh,eIF4H inh
C=C(C)C(=O)Nc1cccc(C2=NOC3(C2)C[C@@H](C(N)=O)N(C(=O)[C@H]2CCC(=O)N2)C3)c1 (some centres not stated),-3.2,i,-21.8,97.4,102.9*
C=C(C)C(=O)Nc1cccc(C2=NOC3(C2)C[C@@H](C(N)=O)N(C(=O)CCCCC)C3)c1 (some centres not stated),.,+,.,88.2,80.8*
C=C(C)C(=O)Nc1cccc(C2=NOC3(C2)C[C@@H](C(N)=O)N(C(=O)c2ccc(OC)cc2)C3)c1 (some centres not stated),-2.8,+,-8.2,68.6*,105.8*
CC(C)NC(=O)N(C)C[C@@H]1Oc2ccc(NC(=O)Nc3ccc4c(c3)OCO4)cc2C(=O)N([C@@H](C)CO)C[C@H]1C,.,.,-9.5,.,.
CNC[C@@H]1OCCCC[C@H](C)Oc2ccc(NC(=O)Nc3ccc(F)cc3)cc2C(=O)N([C@@H](C)CO)C[C@@H]1C,.,.,22.0,.,.
N#Cc1ccc(-c2ccc3c(c2)[C@H]2[C@H](CCN2C(=O)c2ccccc2F)[C@@H](CO)N3)cc1,.,.,8.4,.,.
CN1C(=O)N(C)c2ccc(Br)c3cccc1c23,-3.6,i,-11.7,102.5,-4.2
CN1C(=O)N(C)c2ccc(C=O)c3cccc1c23,58.1*,i,.,98.3,?
CC(=O)c1nnn(-c2ccc([N+](=O)[O-])cc2)c1C,8.3,i,.,100.6,active
O=C(CSc1ccc(Cl)cc1)Nc1cccc(-c2nc3ccccc3[nH]2)c1,3.0,i,.,66.1*,-35.4
CC(=O)Nc1ccc(NC(=O)CSc2nnnn2-c2ccc(F)cc2)cc1,21.1,i,-4.6,60.7*,7.1
C[C@H](CO)N1C[C@H](C)[C@@H](CN(C)CC2CCCCC2)Oc2ccc(NC(=O)C3CCCCC3)cc2CC1=O,.,.,9.0,.,.
CC(=O)C1=C(O)CC(c2ccccc2)CC1=NCCc1c(C)[nH]c2ccc(C)cc12 (configuration not stated),-10.7,i,-1.2,-11.6*,7.3
COc1ccc(S(=O)(=O)N(C)C[C@H]2Oc3c(NC(=O)NC4CCCCC4)cccc3C(=O)N([C@H](C)CO)C[C@H]2C)cc1,.,.,7.8,.,.
CCCc1cc(=O)oc2cc(OC3CCCCC3=O)ccc12 (configuration not stated),-2.1,+,1.6,101.2,88.6*

PABP1 MLLE inh: what is marked active above.
Structure,PABP1 MLLE inh,PABP FP inh,Yeast UUG start,DSG3 Ab inh,eIF4H inh
CN1C(=O)N(C)c2ccc(C=O)c3cccc1c23,58.1*,i,.,98.3,?

New compounds follow
Structure,PABP1 MLLE inh,PABP FP inh,Yeast UUG start,DSG3 Ab inh,eIF4H inh
O=C1CCCCC1Oc1ccc2ccc(=O)oc2c1 (configuration not stated),-5.9,i,-16.7,?,-1.8
O=C(N[C@H]1CC[C@@H](CC(=O)N2CCC(Cc3ccccc3)CC2)O[C@@H]1CO)c1cnccn1,.,.,-2.4,.,.
Cc1ccc(C)c(NC(=O)CSc2ccc(-c3cccs3)nn2)c1,9.0,+,-14.9,112.5,21.6*
Cc1nc2cc(NC(=O)C3COc4ccccc4O3)ccc2s1 (configuration not stated),-101.0,+,-11.9,113.9,-2.3
COc1cccc(N=c2oc3c(C)ncc(CO)c3cc2C(=O)Nc2ccccc2OC)c1,.,i,.,.,-2.0
COc1ccc(NC(=O)c2cc3c(COC(C)=O)cnc(C)c3oc2=Nc2cccc(C(=O)O)c2)c(OC)c1,16.4,i,10.5,66.0*,35.3
CN(c1ccc(OCC(=O)OCC(=O)c2c(N)n(C)c(=O)n(C)c2=O)cc1)S(=O)(=O)c1ccc2ccccc2c1,4.3,i,.,97.5*,-6.2
CCN(c1ccc(OCC(=O)OCC(=O)c2c(N)n(C)c(=O)n(C)c2=O)cc1)S(=O)(=O)c1ccccc1,-12.6,i,-1.6,110.4,-2.6
CC(C)NC(=O)Nc1ccc2c(c1)C(=O)N([C@@H](C)CO)C[C@@H](C)[C@H](CN(C)S(C)(=O)=O)OCCCC[C@@H](C)O2,.,.,17.8,.,.
CCOC(=O)CC(NS(=O)(=O)c1ccc(OC)c(OC)c1)c1cccc([N+](=O)[O-])c1 (configuration not stated),-7.5,i,3.5,101.6,7.1
CCOC(=O)CC(NS(=O)(=O)c1ccc2[nH]cc(C(=O)O)c(=O)c2c1)c1ccc(OCC)c(OC)c1 (configuration not stated),-3.6,+,-4.7,96.4,78.7*
OC1(c2ccccc2)CC(c2ccccc2)c2ccccc2O1 (configuration not stated),-11.9,.,-5.7,49.1*,.
Cc1noc(C)c1S(=O)(=O)Nc1ccc2c(c1)C(=O)N([C@@H](C)CO)C[C@@H](C)[C@@H](CN(C)Cc1ccncc1)OCCCC[C@H](C)O2,.,.,0.6,.,.
CCC(=O)N1CCc2cc(S(=O)(=O)N(C)c3ccc(Br)cc3)ccc21,4.5,i,-1.1,72.8*,-5.9
CCC(=O)N1CCc2cc(S(=O)(=O)N(C)c3ccc(OC)cc3OC)ccc21,17.7,i,-15.7,103.3,0.4

Some of these compounds in order of molar mass, highest first:
Structure,PABP1 MLLE inh,PABP FP inh,Yeast UUG start,DSG3 Ab inh,eIF4H inh
CCN(c1ccc(OCC(=O)OCC(=O)c2c(N)n(C)c(=O)n(C)c2=O)cc1)S(=O)(=O)c1ccccc1,-12.6,i,-1.6,110.4,-2.6
CCC(=O)N1CCc2cc(S(=O)(=O)N(C)c3ccc(Br)cc3)ccc21,4.5,i,-1.1,72.8*,-5.9
CCC(=O)N1CCc2cc(S(=O)(=O)N(C)c3ccc(OC)cc3OC)ccc21,17.7,i,-15.7,103.3,0.4

Next part:
Structure,PABP1 MLLE inh,PABP FP inh,Yeast UUG start,DSG3 Ab inh,eIF4H inh
NC(=NC(=O)c1ccc(Cl)cc1)N1N=CCC1c1ccccc1 (configuration not stated),4.2,i,-1.0,-11.4*,3.5
[N-]=[N+]=NCc1ccccc1C[C@]1(C(=O)N2CCCCC2)N=C(c2ccc(OCCCO)cc2)O[C@H]1c1ccccc1,.,.,0.3,.,.
O=C(O)C1Nc2c(Cl)cc(Cl)cc2C2C=CCC12 (configuration not stated),-20.0,+,7.0,100.0,84.3*
O=C(O)C1Nc2c(O)cccc2C2C=CCC12 (configuration not stated),-1.0,i,.,83.0*,99.3*
O=C(O)C1Nc2c(Cl)cc(Cl)c(Cl)c2C2C=CCC12 (configuration not stated),-21.8,.,-12.3,95.9,.
C[C@@H]1CN([C@H](C)CO)C(=O)Cc2cc(NC(=O)Cc3ccccc3)ccc2O[C@H]1CN(C)C,.,.,-10.4,.,.
C[C@H](CO)N1C[C@H](C)[C@H](CN(C)Cc2ccc(C(=O)Nc3ccccc3N)cc2)Oc2ccc(NC(=O)Cc3cn(C)c4ccccc34)cc2C1=O,.,.,11.2,.,.
O=C(c1cccnc1)N1C[C@@H]2[C@H](c3ccccc31)[C@@H](CO)N2C(=O)Nc1ccccc1,.,.,22.6,.,.
COc1ccc(-c2c(C)nc(N)nc2-c2ccc(OCc3ccc(C)cc3)cc2O)cc1OC,-4.8,i,.,72.6,-0.3
COc1ccc(-c2c(C)nc(N)nc2-c2ccc(OC)cc2O)cc1,31.3,+,-18.0,103.6,66.1*
CCN(CC(O)CON=C1c2ccccc2-c2ccccc21)S(=O)(=O)c1ccc(C)cc1 (configuration not stated),14.0,+,-9.4,132.5,80.0*
c1ccc2[nH]c(CSc3nc4ccccc4o3)nc2c1,34.8*,i,-22.9,89.8,-15.1
C[C@@H]1CN([C@H](C)CO)C(=O)Cc2cc(NS(C)(=O)=O)ccc2O[C@@H]1CN(C)S(=O)(=O)c1ccc(Cl)cc1,.,.,3.1,.,.
C[C@@H]1CCCCO[C@@H](CN(C)Cc2ccc(Cl)c(Cl)c2)[C@H](C)CN([C@H](C)CO)C(=O)c2cc(NS(=O)(=O)c3ccccc3)ccc2O1,.,.,7.1,.,.
Cc1c(-c2ccc(F)cc2)nc(N)c(C#N)c1-c1cccnc1,-4.6,i,-14.3,93.7,-1.4
